Measurements: BindingDB's records for doi:10.1016/j.bmc.2010.05.001 (St. Jude Children'S Research Hospital, 2011)

Molecular target: T1, Zinc finger protein GLI1 (Homo sapiens, UniProt P08151)
T1 sequence (P08151 whole entry): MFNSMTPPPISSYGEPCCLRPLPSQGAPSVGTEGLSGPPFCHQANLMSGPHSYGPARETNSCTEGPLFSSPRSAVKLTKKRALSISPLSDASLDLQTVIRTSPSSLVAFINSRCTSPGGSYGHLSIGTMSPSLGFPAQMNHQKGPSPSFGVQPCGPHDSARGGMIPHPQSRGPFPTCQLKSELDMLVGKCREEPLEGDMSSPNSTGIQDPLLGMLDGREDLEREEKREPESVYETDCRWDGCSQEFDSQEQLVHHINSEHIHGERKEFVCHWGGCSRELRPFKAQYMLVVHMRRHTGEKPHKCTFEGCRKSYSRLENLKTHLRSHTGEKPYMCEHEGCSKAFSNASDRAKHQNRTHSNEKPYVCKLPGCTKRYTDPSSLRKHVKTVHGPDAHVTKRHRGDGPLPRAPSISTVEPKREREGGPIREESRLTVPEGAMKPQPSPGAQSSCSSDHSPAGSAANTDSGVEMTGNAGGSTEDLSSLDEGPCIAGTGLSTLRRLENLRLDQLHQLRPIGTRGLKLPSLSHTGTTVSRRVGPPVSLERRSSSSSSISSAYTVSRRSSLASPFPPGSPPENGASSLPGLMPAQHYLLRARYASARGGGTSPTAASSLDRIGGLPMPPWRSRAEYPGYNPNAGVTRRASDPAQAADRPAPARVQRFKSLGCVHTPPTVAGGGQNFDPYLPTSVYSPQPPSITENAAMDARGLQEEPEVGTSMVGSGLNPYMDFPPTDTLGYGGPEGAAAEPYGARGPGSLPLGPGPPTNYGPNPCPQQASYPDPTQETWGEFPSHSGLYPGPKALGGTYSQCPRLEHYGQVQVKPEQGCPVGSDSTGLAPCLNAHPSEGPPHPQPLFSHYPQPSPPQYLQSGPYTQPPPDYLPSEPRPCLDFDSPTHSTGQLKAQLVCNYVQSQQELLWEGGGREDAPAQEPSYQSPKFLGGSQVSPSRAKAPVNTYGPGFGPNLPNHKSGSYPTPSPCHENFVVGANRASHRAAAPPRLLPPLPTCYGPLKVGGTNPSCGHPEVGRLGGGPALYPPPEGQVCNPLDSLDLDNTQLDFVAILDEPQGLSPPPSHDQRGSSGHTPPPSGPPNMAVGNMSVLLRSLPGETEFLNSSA
Assay: Inhibition of human Gli1 expressed in mouse C3H10T1/2 cells assessed as inhibition of transcriptional activity after 24 hrs by luciferase reporter gene assay
In short: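 C3H10T1/2 cells transiently transfected overnight with GliLuc-BS, pRL-TK Renilla control and human Gli1 (or mouse Gli2 for Gli2 lines), 250 ng/mL each for the Gli plasmids. Cells replated in 96-well plates, then exposed to compound in BME/10% FBS for 24 h at 37 °C. Firefly/Renilla dual-luciferase ratio normalized to DMSO, triplicates. Dose–response IC50 from curve fitting.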

IC50: 2600 nM
Structure (SMILES): CCCN(C(=O)C(C)c1cccc(C(=O)c2ccccc2)c1)c1ccc2cc[nH]c2c1 (stereo unspecified) [2-(3-Benzoylphenyl)-N-(1H-indol-6-yl)-N-propylpropanamide]
